## Apparent affinities of Ab-14 variants for a coronavirus HR2 peptide

Source: Engelhart et al. 2022 (doi:10.1038/s41597-022-01779-4), MIT Lincoln Laboratory and A-Alpha Bio; data file from the FLAb repository.

Target: peptide PDVDLGDISGINAS, taken from heptad repeat 2 (HR2) of SARS-CoV-2 spike.

Parent: Ab-14, a human scFv built as VH, a (GGGGS)3 linker, VL. Only the CDRs of the heavy chain vary.
VH: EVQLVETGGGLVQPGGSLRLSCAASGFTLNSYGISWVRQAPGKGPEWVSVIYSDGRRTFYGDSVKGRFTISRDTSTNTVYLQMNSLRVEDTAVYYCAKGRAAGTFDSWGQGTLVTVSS
VL: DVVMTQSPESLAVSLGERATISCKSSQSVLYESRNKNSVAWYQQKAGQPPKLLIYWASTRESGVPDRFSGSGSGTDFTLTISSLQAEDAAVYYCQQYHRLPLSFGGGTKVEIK

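Phage display of a naive human antibody library on the peptide gave the parent. In library AAYL49, one, two or three CDR residues were substituted; doubles and triples were drawn at random. In AlphaSeq, yeast of one mating type display the scFv and yeast of the other type display the target. Pairs that bind mate more often; barcode pairs of the diploids are counted by sequencing. A regression on co-assayed BCL2-family reference pairs converts the normalised counts of each replicate to an apparent Kd. There are three technical replicates.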

Sequences are complete VH domains.
Numbers give log10(Kd / nM), so 0 is 1 nM and 3 is 1 µM. Smaller is tighter.
The mean shown is taken over the replicates in which the pair was detected.
"no signal" marks a missing value. The strain was present, yet no cells mated with the target were sequenced in any replicate, which points to weak or no binding.
Order: sorted from the lowest average up, undetected variants last.
Empty control strains, which show no peptide, gave a signal in 15% of pairings with library AAYL49; the median was 4.06 and 95% of these signals were weaker than 2.83. No background was subtracted.

VH,"mean, log10 nM",seen in
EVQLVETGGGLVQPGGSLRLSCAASGFHLNSYGISWVRQAPGKGPEWVSVIYSDGRRVFYGHSVKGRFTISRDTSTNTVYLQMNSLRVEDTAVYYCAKGRAAGTFDSWGQGTLVTVSS,2.42,3 of 3
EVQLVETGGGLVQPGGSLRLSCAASGFTLNSGNISWVRQAPGKGPEWVSVIYSDGRRTFYGDSVKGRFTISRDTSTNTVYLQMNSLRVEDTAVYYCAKGRAAGTFESWGQGTLVTVSS,2.76,1 of 3
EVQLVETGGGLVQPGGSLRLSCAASGFTLNSYGISWVRQAPGKGPEWVSVITFDGGRTFYGDSVKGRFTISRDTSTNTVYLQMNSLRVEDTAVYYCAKGRAAGTFDSWGQGTLVTVSS,2.82,3 of 3
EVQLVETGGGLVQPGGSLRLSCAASGFTLNSYGISWVRQAPGKGPEWVSIIYSDGRRHFYGDSVKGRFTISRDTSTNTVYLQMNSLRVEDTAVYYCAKGRAAGTFDCWGQGTLVTVSS,3.40,2 of 3
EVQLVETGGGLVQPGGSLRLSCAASGFTLNSRGISWVRQAPGKGPEWVSVIYSDGRRTFYGDSVKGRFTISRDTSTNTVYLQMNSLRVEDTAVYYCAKGAANGTFDSWGQGTLVTVSS,3.43,1 of 3
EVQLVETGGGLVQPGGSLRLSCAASGLTLNFYGISWVRQAPGKGPEWVSVIYSDGRRTFYGDSVKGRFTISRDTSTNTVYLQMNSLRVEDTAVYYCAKHRAAGTFDSWGQGTLVTVSS,3.60,3 of 3
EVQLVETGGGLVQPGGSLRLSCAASGFTLNSYGIVWVRQAPGKGPEWVSVIFSDGRRTFYGDSVCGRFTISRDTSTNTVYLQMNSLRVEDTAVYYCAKGRAAGTFDSWGQGTLVTVSS,3.63,3 of 3
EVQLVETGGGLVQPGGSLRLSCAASGFTLNSYGISWVRQAPGKGPEWVSVIYSDGRRTFYGDSDQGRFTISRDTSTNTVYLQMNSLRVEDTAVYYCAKGRAAGTFKSWGQGTLVTVSS,3.90,1 of 3
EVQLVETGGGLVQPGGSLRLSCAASGFTLNSMGISWVRQAPGKGPEWVSVIYSDGRRTFYGDSVKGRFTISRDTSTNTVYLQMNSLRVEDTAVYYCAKDRAAGTFDCWGQGTLVTVSS,3.91,2 of 3
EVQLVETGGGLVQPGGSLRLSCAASGWTLNSYGISWVRQAPGKGPEWVSVIYSDGRTTPYGDSVKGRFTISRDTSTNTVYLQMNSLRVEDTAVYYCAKGRAAGTFDSWGQGTLVTVSS,4.24,2 of 3
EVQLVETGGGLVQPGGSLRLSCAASGFTLNSYGISWVRQAPGKGPEWVSVIYSKGRRTKYGDSMKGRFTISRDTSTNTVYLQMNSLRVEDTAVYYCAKGRAAGTFDSWGQGTLVTVSS,4.55,1 of 3
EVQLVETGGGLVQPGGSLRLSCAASGFTLNSYRISWVRQAPGKGPEWVSVIYSLGRRTFYGDSVKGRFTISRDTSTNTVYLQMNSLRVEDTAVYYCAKGRAAGTFDSWGQGTLVTVSS,5.03,1 of 3
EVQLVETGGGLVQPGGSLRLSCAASGFTLNSYGISWVRQAPGKGPEWVSVIYSDGHRTFYGDSDKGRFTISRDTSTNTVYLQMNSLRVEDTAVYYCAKGRHAGTFDSWGQGTLVTVSS,5.06,2 of 3

Second part, the sequence after the result:

"mean, log10 nM",seen in,VH
no signal,0 of 3,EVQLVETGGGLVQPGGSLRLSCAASGFTLNSYWISWVRQAPGKGPEWVSVIYSDGRRTGYGDSVKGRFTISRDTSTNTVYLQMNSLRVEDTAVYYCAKGRAAGTFDWWGQGTLVTVSS
no signal,0 of 3,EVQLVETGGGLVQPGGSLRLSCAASGFTLNSYMISWVRQAPGKGPEWVSVIASDGRRTFYGDSVKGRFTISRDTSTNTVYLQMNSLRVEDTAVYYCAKGRAAMTFDSWGQGTLVTVSS
no signal,0 of 3,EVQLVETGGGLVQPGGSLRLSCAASGFTLNSYGISWVRQAPGKGPEWVSVIYSDGRRTFHGDMVKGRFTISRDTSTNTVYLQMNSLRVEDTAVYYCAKGRAAGTFDTWGQGTLVTVSS
no signal,0 of 3,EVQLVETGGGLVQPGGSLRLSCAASGFTLNSYPISWVRQAPGKGPEWVSVIYSDGRRTFYVDSVKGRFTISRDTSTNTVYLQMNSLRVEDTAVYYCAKGRAAGTFHSWGQGTLVTVSS
no signal,0 of 3,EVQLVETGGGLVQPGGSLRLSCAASDFTLNSYGISWVRQAPGKGPEWVSVKYSDGRRTFYGDSSKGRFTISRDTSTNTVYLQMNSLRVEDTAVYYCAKGRAAGTFDSWGQGTLVTVSS
no signal,0 of 3,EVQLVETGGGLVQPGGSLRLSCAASGFTLNSYGISWVRQAPGKGPEWVSVIYSCGRRTFYGDSNKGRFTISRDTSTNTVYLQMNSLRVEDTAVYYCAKGRAAGTCDSWGQGTLVTVSS
no signal,0 of 3,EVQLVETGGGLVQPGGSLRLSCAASGFTKPSYGISWVRQAPGKGPEWVSVIYSDGRRTFYGDSVKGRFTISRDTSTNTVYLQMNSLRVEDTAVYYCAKGRAAGTFDSWGQGTLVTVSS
no signal,0 of 3,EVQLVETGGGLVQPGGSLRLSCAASGFTLNSYGISWVRQAPGKGPEWVSVIYSDIRRTFYGDSVKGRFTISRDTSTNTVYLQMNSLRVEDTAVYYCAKGRAAGYFDWWGQGTLVTVSS
no signal,0 of 3,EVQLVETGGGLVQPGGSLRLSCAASGFLLNSYGISWVRQAPGKGPEWVSVIYSDGRRTFYGDSFKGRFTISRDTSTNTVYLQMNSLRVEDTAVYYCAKGRAAGTGDSWGQGTLVTVSS
no signal,0 of 3,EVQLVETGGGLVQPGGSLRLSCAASGFTLNSRHISWVRQAPGKGPEWVSVIYSDGRRTFYADSVKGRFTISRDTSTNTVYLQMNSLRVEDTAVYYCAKGRAAGTFDSWGQGTLVTVSS
no signal,0 of 3,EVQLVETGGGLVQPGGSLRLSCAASGFTLNSYGPSWVRQAPGKGPEWVSVIYSDCRRTFYGDSVKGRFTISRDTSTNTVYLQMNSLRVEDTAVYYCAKGFAAGTFDSWGQGTLVTVSS
no signal,0 of 3,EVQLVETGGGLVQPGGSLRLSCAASGFTLNSYGISWVRQAPGKGPEWVSVFYSDGRRTFYGDCVKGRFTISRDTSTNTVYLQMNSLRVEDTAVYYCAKGRAHGTFDSWGQGTLVTVSS
no signal,0 of 3,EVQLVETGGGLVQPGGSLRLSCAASGFRLNSYGISWVRQAPGKGPEWVSVIYSDGRRTFYGDSVKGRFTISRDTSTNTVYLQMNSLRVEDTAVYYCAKGRNAGTFDPWGQGTLVTVSS

Repeated from above, the 2 best binders with a signal in all replicates:

| VH | mean, log10 nM | seen in |
|---|---|---|
| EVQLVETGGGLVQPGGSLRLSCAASGFHLNSYGISWVRQAPGKGPEWVSVIYSDGRRVFYGHSVKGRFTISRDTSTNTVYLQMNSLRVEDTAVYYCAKGRAAGTFDSWGQGTLVTVSS | 2.42 | 3 of 3 |
| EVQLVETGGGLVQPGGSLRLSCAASGFTLNSYGISWVRQAPGKGPEWVSVITFDGGRTFYGDSVKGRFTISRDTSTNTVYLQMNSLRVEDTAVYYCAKGRAAGTFDSWGQGTLVTVSS | 2.82 | 3 of 3 |